The values that follow come from patent US20070191431A1, “2-Amino-5-piperidinylimidazolone compounds and use thereof for beta-secretase modulation” (Wyeth, priority 2005, published 2007).

By UniProt entry, the sequences of proteins in these tests, tags left out. Residues count along the entry.
UniProt P56817, 46-501 limits assumed: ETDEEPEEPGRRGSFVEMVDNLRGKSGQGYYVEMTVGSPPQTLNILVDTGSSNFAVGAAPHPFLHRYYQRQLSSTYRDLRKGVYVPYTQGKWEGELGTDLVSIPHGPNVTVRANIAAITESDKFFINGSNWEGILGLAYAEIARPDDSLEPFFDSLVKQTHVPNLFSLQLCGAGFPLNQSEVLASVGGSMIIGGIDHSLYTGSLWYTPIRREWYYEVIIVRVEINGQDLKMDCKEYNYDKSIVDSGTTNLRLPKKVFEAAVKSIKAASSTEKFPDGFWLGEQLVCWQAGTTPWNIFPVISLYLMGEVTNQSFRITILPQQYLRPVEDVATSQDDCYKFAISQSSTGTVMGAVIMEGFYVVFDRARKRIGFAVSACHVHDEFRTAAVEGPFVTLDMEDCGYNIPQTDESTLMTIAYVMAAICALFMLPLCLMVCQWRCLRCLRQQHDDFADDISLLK

Molecules are shown by their SMILES.

This test has as its target human BACE1 (Homo sapiens, UniProt P56817). The test is described as follows: BACE-1 fluorescent kinetic assay (Example 88). The settings on record: read-out: BACE1 (IC50 μM); 10 nM enzyme, 25 μM substrate WABC-6, Na-Acetate pH 4.5, room temperature.
For orientation: IC50 means the concentration at which inhibition is half-maximal. Turning to `COCC(=O)Nc1cccc(C2(C3CCN(C(=O)CCC4CCCCC4)CC3)N=C(N)N(C)C2=O)c1` (stereo not drawn), the IC50 lay within 0.01 to 1 µM.

As for `COCC(=O)Nc1cccc(C2(C3CCN(C(=O)C4CCCCC4)CC3)N=C(N)N(C)C2=O)c1` (stereo not drawn), the half-inhibitory concentration (IC50) lay within 0.01 to 1 µM.

As for `COCC(=O)Nc1cccc(C2(C3CCN(C(=O)c4cncc(Br)c4)CC3)N=C(N)N(C)C2=O)c1` (stereo not drawn), the IC50 lay in the range of 1.01 to 3 µM.
